Test results reported in patent US20190345536A1, “DETECTION METHOD FOR CHROMOSOMAL ABNORMALITIES AND METHOD FOR EVALUATING INDUCIBILITY” (Sumitomo Chemical Company, Limited, priority 2016, published 2019).

System: human iPS cell-derived T lymphocyte

Compound: COc1cc2c(c(OC)c1OC)-c1ccc(OC)c(=O)cc1[C@@H](NC(C)=O)CC2 [COL, colchicine]
- judgment result obtained in this Example (in vitro micronucleus test): positive
